Patent EP4659739A9, “TOPICAL FORMULATION COMPRISING NON-COVALENT KERATIN-ACTIVE AGENT CONJUGATES FOR THERAPEUTIC USE” (Rigi Therapeutics AG, priority 2024, dated 2025)

Tested on: Chorion-Allantois-Membran
Test: HET-CAM, preclinical tolerability
Parameters: species or system Gallus gallus domesticus
Conditions: classified by IS
Procedure: Als Screening hinsichtlich der Hautverträglichkeit der Keratinpartikel wurde dieses in eine halbfeste Formulierung eingearbeitet und an der Chorion-Allantois-Membran von acht- bis neuntägigen Gallus gallus domesticus Embryonen (Rasse: New Hampshire) getestet.
Die Hautverträglichkeit der Keratinpartikel wurde an der Chorion-Allantois-Membran von acht- bis neuntägigen Hühnerembryonen getestet. Befruchtete Hühnereier wurden hierfür acht bis neun Tage lang bei 37°C und 55 % Luftfeuchtigkeit bebrütet. Alle 12 Stunden wurden die Eier gewendet, ausgenommen die letzten 24 Stunden vor Versuchsbeginn. Die Öffnung der Eier wurde an den nach oben gerichteten Eierpolen durchgeführt, wofür die Eierschalen kreisrund (Ø 1,5 cm) geöffnet wurden. Nach dem Abnehmen der Eischalen wurden die Eihäute mit einer 37°C warmen 0,9%-igen NaCl-Lösung befeuchtet. Anschließend wurden unter der Sterilbank die äußeren Eihäute mittels Schere und Pinzette entfernt und die Chorion-Allantois-Membranen freigelegt. Etwa 10-30 % der präparierten Eier wurden für die Untersuchungen nicht verwendet, da sie unbefruchtet waren. Die halbfeste Keratinpartikel-haltige Formulierung konnte nun an den gut ausgebildeten und unbeschädigten Blutgefäßen der Chorion-Allantois-Membranen aufgetragen und getestet werden. Das Testpräparat wurde an insgesamt sechs Eiern getestet, maximal 30 Minuten nach der Öffnung der Eier. […]

Compound: CCCCCCCCCCCCOS(=O)(=O)O [1 % Natriumlaurylsulfat-Lösung, Natriumlaurylsulfat]
- Irritatives Potential: stark
- Irritatives Potential (listed as 1%ige Natriumlaurylsulfat-Lösung): starkes (IS > 9 = starkes irritatives Potential)
